Measurements as given in patent US9402842B2, “Synthesis and use of dual tyrosyl-DNA phosphodiesterase I (Tdp1)—topoisomerase I (Top1) inhibitors” (Purdue Research Foundation, priority 2012, dated 2016).
Where two headings read alike, the source gives them in different places.

By UniProt entry, the sequences of proteins in these tests, tags left out.
UniProt P11387, whole entry: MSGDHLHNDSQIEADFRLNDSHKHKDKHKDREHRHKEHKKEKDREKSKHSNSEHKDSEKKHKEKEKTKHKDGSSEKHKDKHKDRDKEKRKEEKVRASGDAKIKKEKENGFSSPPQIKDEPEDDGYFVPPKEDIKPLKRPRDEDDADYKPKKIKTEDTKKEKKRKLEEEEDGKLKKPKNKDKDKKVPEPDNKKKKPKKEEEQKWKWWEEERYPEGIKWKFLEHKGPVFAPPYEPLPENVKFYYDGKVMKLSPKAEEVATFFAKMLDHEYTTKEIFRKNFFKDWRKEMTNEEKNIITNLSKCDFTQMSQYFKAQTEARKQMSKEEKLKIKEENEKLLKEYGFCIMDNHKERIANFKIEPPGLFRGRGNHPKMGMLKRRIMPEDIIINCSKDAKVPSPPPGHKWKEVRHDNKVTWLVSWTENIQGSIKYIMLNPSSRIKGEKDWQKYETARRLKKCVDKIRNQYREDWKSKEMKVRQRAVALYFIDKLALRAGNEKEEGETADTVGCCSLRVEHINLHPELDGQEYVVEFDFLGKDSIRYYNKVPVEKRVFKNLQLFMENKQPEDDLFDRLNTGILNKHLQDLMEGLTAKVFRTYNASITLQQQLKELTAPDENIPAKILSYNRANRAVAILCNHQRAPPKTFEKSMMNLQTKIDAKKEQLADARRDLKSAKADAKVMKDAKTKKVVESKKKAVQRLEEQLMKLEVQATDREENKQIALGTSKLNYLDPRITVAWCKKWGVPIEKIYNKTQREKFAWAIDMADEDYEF
UniProt Q9NUW8, whole entry: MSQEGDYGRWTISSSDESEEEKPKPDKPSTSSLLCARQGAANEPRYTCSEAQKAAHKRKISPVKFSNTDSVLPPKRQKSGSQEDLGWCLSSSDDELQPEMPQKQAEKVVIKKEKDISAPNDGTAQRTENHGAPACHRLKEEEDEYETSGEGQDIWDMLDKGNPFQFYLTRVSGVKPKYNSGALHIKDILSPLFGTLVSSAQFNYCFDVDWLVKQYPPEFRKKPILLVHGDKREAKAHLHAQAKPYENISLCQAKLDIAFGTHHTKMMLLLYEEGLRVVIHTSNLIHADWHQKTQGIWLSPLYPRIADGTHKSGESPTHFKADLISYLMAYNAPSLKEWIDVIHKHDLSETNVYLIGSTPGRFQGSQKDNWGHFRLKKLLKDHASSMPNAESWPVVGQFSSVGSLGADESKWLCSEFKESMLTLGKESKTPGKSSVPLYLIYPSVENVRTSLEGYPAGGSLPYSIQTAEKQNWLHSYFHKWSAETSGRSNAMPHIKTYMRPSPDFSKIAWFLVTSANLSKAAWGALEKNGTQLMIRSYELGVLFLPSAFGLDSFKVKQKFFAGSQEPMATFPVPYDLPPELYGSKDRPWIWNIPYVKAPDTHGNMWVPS

What was measured:
human recombinant Top1 = human recombinant Top1 (Homo sapiens (Human), UniProt P11387); experiment: Topoisomerase I-mediated DNA cleavage reactions; conditions: tested form: HCl; for Top1, compound-induced DNA cleavage due to Top1 inhibition: semiquantitative, relative to 1 μM camptothecin
Tdp1 [1] = target: T1, Tdp1 (Homo sapiens (Human), UniProt Q9NUW8); experiment: Gel-based assay measuring the inhibition of recombinant Tdp1; assay type: biochemical; conditions: tested form: HCl
Tdp1 [2] = target: T1, Tdp1; experiment: Surface plasmon resonance binding to immobilized Tdp1; conditions: amine coupled Tdp1; tested form: HCl
Tdp1 [3] = target: T1, Tdp1; experiment: FRET assay, mechanism of inhibition of Tdp1; assay type: biochemical; conditions: tested form: HCl

NCCCCCCCCCCCn1c2c(c3ccccc3c1=O)C(=O)c1ccccc1-2
Top1, compound-induced DNA cleavage due to Top1 inhibition (human recombinant Top1): + (between 20 and 50%, activity)

NCCCCCCCCCCCCn1c2c(c3ccccc3c1=O)C(=O)c1ccccc1-2
Top1, compound-induced DNA cleavage due to Top1 inhibition (human recombinant Top1): 0/+

NCCCCCCCCCCn1c2c(c3ccccc3c1=O)C(=O)c1ccccc1-2
IC50 (Tdp1 [1]; read-out: IC50 (μM) recombinant Tdp1, recombinant Tdp1, gel-based assay): 14 µM
IC50 (Tdp1 [1]; read-out: Tdp1 (semiquantitative IC50 scale), determined by duplicate): > 111 µM
Tdp1 inhibitory activity (in words) (Tdp1 [1]; recombinant Tdp1): inactive
suppression of Top1-mediated DNA cleavage at high drug concentration (human recombinant Top1; high concentration of 100 μM): complete suppression
Top1, compound-induced DNA cleavage due to Top1 inhibition (human recombinant Top1): 0

NCCCn1c2c(c3ccccc3c1=O)C(=O)c1ccccc1-2
binding to Tdp1 by surface plasmon resonance (in words) (Tdp1 [2]): direct binding
mechanism of inhibition (Tdp1 [3]): competitive inhibitor
